Test results from patent US12383553B2, “Method for detecting or treating triple negative breast cancer” (Children's Medical Center Corporation, priority 2014, dated 2025).

Experiments:
[1] = test system: TNBC cells (MDA-MB-231, MDA-MB-436, MDA-MB-157); assay: In vitro nanoparticle binding of FITC-labeled probes by flow cytometry; assay type: cell-based, human
Method: FTIC conjugated ICAM-IOs, or IGG-IOs, or HER2-IOs (ICAM-IO-FITC, or IGG-IO-FITC, or HER2-FITC-IO) were prepared to evaluate their in vitro TNBC targeting by flow cytometry. FITC was first conjugated to the casein coated on CNIOs according to FITC manufacturer's protocol. Then obtained FITC-CNIOs were conjugated with IGG, or HER2 antibody or ICAM-1 antibody as described in JCAM-IO synthesis.
Quantitative analysis of ICAM-IO-FITC binding to TNBCs (MDA-MB-231, MDA-MB-436, MDA-MB-157) were conducted using flow cytometry. Non-TNBCs (MCF7, HCC1500, MDA-MB-361, and SKBR3) and non-neoplastic cells (AG11132 and MCF10A) were selected as controls. Cells were seeded in 6-well plates (3×10^5 cells/well) and allowed to adhere overnight. Then cells were incubated for 4 h at 37° C. with (1) IGG- IO-FITC, (2) HER2-IO-FITC, and (3) ICAM-1-IO-FITC. The nanoparticle concentration used was 100 μg/mL. All nanoparticle treated cells were washed with PBS, harvested using a 0.25% trypsin/2.6 mM EDTA solution, and washed with PBS (pH 7.4) three times. Binding data were acquired using a BD FACSCalibur flow cytometer and analyzed using FlowJo software. The increase binding value was calculated by dividing the mean fluorescence intensity of HER2-1-FITC, or ICAM-1-IO-FITC stained cells by that of the non-specific IGG-IO-FITC stained cells.

[2] = test system: MDA-MB-231 TNBC tumor; assay: In vivo MRI of xenograft TNBC mouse model; set-up: species or system nude mice; details: 24 h after intravenous administration, 20 mg Fe/kg, T2-weighted MRI, MDA-MB-231 xenograft
Method: The ability of ICAM-IOs for targeted imaging of T NBC tumors in vivo were examined by MR imaging using a xenograft TNBC mouse model. MDA-MB-231 cells were subcutaneously implanted in immunodeficient nude mice. MRI was performed on three groups of tumor bearing mice intravenously injected with IGG-IO, HER2-IO, or ICAM-IO when tumors reached 1 cm^3 in volume. Each group was scanned at pre-injection and 24 h and 48 h post-injection with a set of MRI sequences, including T1, T2-weighted spin echo imaging, and T2 relaxometry. T2 weighted MR images presented in FIG. 4A show decreased signals in the regions of the tumor as the result of enhanced T2 contrast from uptake of IO probes in tumors.
Subcutaneous breast tumors were established by injecting 5×10^6 MDA-MB-231 cells into the fourth mammary fat pad of Nude mice (Charles River, Wilmington, MA) with n=5 for each group. Tumors were well developed for 5-7 weeks until the tumors were at least 200 mm3 in volume. In vivo MRI was performed on the tumor-bearing mice in three groups, which injected intravenously with IGG-IO, HER2-IO and ICAM-IO (at the dosage of 20 mg Fe/kg mouse weight), respectively. […] The pixel intensity was calculated and normalized to the area of ROIs by ImageJ software. […]

[3] = test system: MDA-MB-231 TNBC tumor; assay: Biodistribution and tumor iron accumulation (phenanthroline colorimetric method) and tumor histology; assay type: in vivo, nude mice; details: TNBC tumor sections from treated mice
Method: The biodistribution and tumor accumulation of MRI probes were evaluated. […] Correlating with the in vivo MRI results, the iron accumulation of ICAM-IOs in TNBC tumors was 3.7- and 2.1-fold higher than that of IGG-IOs and HER2-IOs with reference to untreated tumors, respectively (FIG. 4C inset). To further confirm the targeting of ICAM-IOs to the tumor, the in vivo MRI results were corroborated with histology. TNBC tumor sections were stained with ICAM-1 antibody, HER2 antibody, hematoxylin and eosin (H&E), and Prussian blue. […] In contrast, Prussian blue staining was low in tumors receiving IGG-IOs or HER2-IOs.
Subcutaneous breast tumors were established by injecting 5×10^6 MDA-MB-231 cells into the fourth mammary fat pad of Nude mice (Charles River, Wilmington, MA) with n=5 for each group. […] Images were obtained at pre- and 24 h post-injection using a 3 T MRI scanner (Siemens Healthcare (Malvern, PA, USA) with fast spin echo and multi-TE sequence for T2-weighted MRI. The imaging parameters included: TR of 3200 ms, TE of 86 ms, matrix of 320×128, field of view (FOV) of 120×60 mm2, flip angle of 150°, and slice thickness of 1.00 mm for T2-weighted imaging; TR of 3710 ms and 20 different TEs, starting at 12 ms with increments of 12 ms for multi-TE imaging. To quantity the signal intensity for tumor, ROIs were drawn around the whole tumor at the same slice with the same imaging depth. […]

HER2-IOs: casein coated iron oxide nanoparticles conjugated with Herceptin (humanized anti-HER2 antibody), control
targeting of TNBC cells [1]: failed to target TNBCs | MRI signal drop in tumor [2]: 17% | Prussian blue staining of IOs in tumor sections [3]: low
